# Values quoted from earlier work, collected in US11707636B2, “Methods and devices for modulating cellular activity using ultrasound” (priority 2008, dated 2023).
# Test system: blood-brain barrier
# Conditions: mouse, in vivo, iv; cited from earlier work
substance,measurement,value
fluorescein isothiocyanate-dextran,crossing of the blood-brain barrier (BBB) under normal conditions,does not cross
